Results published in patent US20260240847A1, “COMPOUNDS WITH ANTI-TUMOR ACTIVITY AGAINST CANCER CELLS BEARING TYROSINE KINASE INHIBITOR RESISTANT EGFR MUTATIONS” (BOARD OF REGENTS, THE UNIVERSITY OF TEXAS SYSTEM, priority 2019, published 2026).

System: Ba/F3 cells expressing acquired atypical mutations spanning exons 18-21
Assay: Ba/F3 cells, acquired atypical mutations, drug sensitivity
Conditions: 72 hours

C=CC(=O)Nc1cc(Nc2nccc(-c3cn(C)c4ccccc34)n2)c(OC)cc1N(C)CCN(C)C
drug sensitivity/resistance: resistance
